Experimental data taken from article PMC6407579, “New flavonoid – N,N-dibenzyl(N-methyl)amine hybrids: Multi-target-directed agents for Alzheimer´s disease endowed with neurogenic properties” (Journal of Enzyme Inhibition and Medicinal Chemistry, 2019).

Chains of the proteins cited; added tags and fusions are not shown.
UniProt P21397, whole entry: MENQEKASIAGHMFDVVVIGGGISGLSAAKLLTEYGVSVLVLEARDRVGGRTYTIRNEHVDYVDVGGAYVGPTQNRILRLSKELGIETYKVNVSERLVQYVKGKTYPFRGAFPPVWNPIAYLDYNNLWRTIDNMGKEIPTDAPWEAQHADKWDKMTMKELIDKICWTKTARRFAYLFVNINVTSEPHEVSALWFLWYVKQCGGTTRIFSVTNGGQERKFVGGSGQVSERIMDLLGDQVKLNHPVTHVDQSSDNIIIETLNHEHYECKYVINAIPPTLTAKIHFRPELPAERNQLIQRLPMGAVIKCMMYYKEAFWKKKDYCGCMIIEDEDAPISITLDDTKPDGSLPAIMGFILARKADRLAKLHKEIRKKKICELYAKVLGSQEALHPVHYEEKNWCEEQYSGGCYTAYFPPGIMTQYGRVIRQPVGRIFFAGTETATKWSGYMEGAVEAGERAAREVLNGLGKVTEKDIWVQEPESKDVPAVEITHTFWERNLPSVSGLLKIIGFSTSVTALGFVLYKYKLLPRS

Biological target: recombinant hMAO-A (Homo sapiens, UniProt P21397)
Assay type: biochemical
Conditions: mean ± SEM (n = 3); 100 µM highest concentration tested

CC(C)NNC(=O)c1ccncc1 [Iproniazid, reference compound]
IC50: 6.7 ± 0.8 µM
